The data set is described as follows: Body weight of SHR rats during daily oral dosing. The format is in vivo, rat. Conditions: n=10, oral once daily, CM6271 300 mg/kg, hydralazine 5 mg/kg. The text has this: Figures in Table 1 represent mean±SD (standard deviation).

Each structure is given as a SMILES string.

On to `NNc1nncc2ccccc12` [Hydralazine, hydralazine], for which the “Body weight (g) Day 1” value (Day 1 (first day of dosing), mean±SD) came to 232.3 ± 16.1 g. Also, where the note is “Day 8, mean±SD”, the “Body weight (g) Day 8” value turned out to be 246.0 ± 12.5 g.

For the origin of these results see patent publication US20050180991A1, “Hypotensive agent and food” (priority 2004, published 2005).
